Measured values taken from patent US9872922B2, “Anti-EFNA4 antibody-drug conjugates” (PFIZER, INC., priority 2013, dated 2018).

Test system: Ovarian-39 (OV39) ovarian cancer PDX
Test: In vivo efficacy, OV39 ovarian cancer PDX
Parameters: species or system NOD/SCID mice (human tumor PDX)
Conditions: 1.5 mg/kg; Day 21

Work on `COc1cccc2c1C(=O)c1c(O)c3c(c(O)c1C2=O)C[C@@](O)(C(=O)CO)C[C@@H]3O[C@H]1C[C@H](N)[C@H](O)[C@H](C)O1` [Doxorubicin, doxorubicin, reference compound] yielded a mean tumor volume of 106 ± 19.
